According to PubChem BioAssay AID1671194 (National Center for Advancing Translational Sciences (NCATS), 2021):
The list shows a part of the results, in another mix than the full data. Some tests of the compounds listed are not included; inactive here does not mean inactive elsewhere. Results filed as inconclusive are left out. Calls of active or inactive are those of the source. Calls come from the whole dose curve; as a rule, active = well fitted inhibition curve with a large enough effect; inconclusive = small, poorly fitted or top-dose-only effect; inactive = no such curve, though single readings can be large or run the other way.

Assay: Primary qHTS assay for inhibitors of alpha-synuclein gene (SNCA) expression; note: nearly all actives have a fitted effect of over 45% in size
Settings: HEK-293 SNCA-luciferase knock-in, luminescence, 24 h; at 57.2 µM (top of the series)
Excerpt: Assay Submitter (PI): Daniel R. Scoles Ph.D.
Department of Neurology, University of Utah, Salt Lake City, Utah
Accumulation of alpha-synuclein is a main underlying pathological feature of Parkinson's disease (PD) and alpha-synucleinopathies, for which lowering expression of the alpha-synuclein gene (SNCA) is a potential therapeutic avenue. Using a cell-based luciferase reporter of SNCA expression we performed a quantitative high throughput screen (qHTS) of 155,885 compounds in dose response. The screening assay was generated using genome editing to insert the luciferase gene downstream and in frame of the SNCA gene in HEK-293 cells (1). A viability counterscreen using GF-AFC was used to eliminate cytotoxic and false positive compounds. After in silico analysis (clustering, removal of frequent hitter nuisance chemotypes), inhibitor compounds from the primary screen were selected for follow up and re-tested at 11-doses in the SNCA-luc cells (luciferase and GF-AFC confirmation), and in CMV-luc expressing cell line to flag general transcriptional repressors.
Described herein are the results of the primary screen for SNCA inhibitors; decrease in luciferase signal (inhibition of the SNCA gene expression) is the desired output for this assay.
1. Dansithong, W., Paul, S., Scoles, D. R., Pulst, S. M., and Huynh, D. P. (2015) Generation of SNCA Cell Models Using Zinc Finger Nuclease (ZFN) Technology for Efficient High-Throughput Drug Screening. PLoS ONE 10, e0136930.
SEQUENCE No. (e.g., 1, 2, 3, etc.); […] (e.g., Cells, Incubation, Reagent, etc.); VALUE; DESCRIPTION
1; Cells; 4 uL; Dispense 1500 HEK-293-SNCA-luc cells/well into Greiner 1536-well white / solid bottom tissue culture treated plate. The plate was covered with metal lids with gas-exchange holes.
2; Incubate; 24 hours; Incubate at 37C, 5% CO2, 95% RH.
3; Compounds; 23 nL; Compounds and controls were transferred via a Kalypsys Pin Tool (Wako USA) equipped with a 1536-slotted pin array. The plate was covered with metal lids with gas-exchange holes.
4; Incubate; 24 hours; Incubate at 37C, 5% CO2, 95% RH.
5; Dispense; 1 uL; Dispense Gly-Phe-7-amino-4-trifluoromethylcoumarin (GF-AFC, prepared at 125 uM in PBS) was added. The plate was covered with metal lids with gas-exchange holes.
6; Incubate; 30 min; Incubate at 37C, 5% CO2.
7; Detector; Fluorescence; Measure fluorescence with ViewLux microplate reader (PerkinElmer) equipped with 405/10 excitation and 540/25 emission filters.
8; Dispense; 3 uL; Dispense ONE-Glo ([…]) lucifase detection reagent was added to each well. Plates were covered with metal lids with gas-exchange holes.
9; Incubate; 15 min; Incubate at room temperature.
10; Detector; Luminescence; Measure luminescence with ViewLux microplate reader (PerkinElmer) equipped with clear filters.
NOTES (numbers refer to sequence above)
1; HEK-293-SNCA-luc were cultured and suspended in phenol-red free DMEM (4.5 g/L glucose, 25 mM HEPES, cat #21063 (Thermo)).
3; Compounds were added to the assay plate in an 11-point intra plate dose response, 1:3 titration in DMSO with a final concentration range of […]. Vehicle-only plates, with DMSO being pin-transferred to every well, were inserted at the beginning of screening runs to confirm expected assay performance. Activity was normalized to wells containing medium only (-100% activity, full inhibition) and SNCA-luc cells treated with DMSO vehicle control (0% activity), contained on the same plate as test samples.
10; Signals were analyzed, and dose-response curves were fit using the Hill equation. Compounds in curve classes -1.1, -1.2, -2.1, -2.2 in the SNCA-luc assay were considered active. Compounds were eliminated from further consideration if also active (curve class -1.1, -1.2, -1.3, -1.4, -2.1, -2.2, -2.3, -2.4) in the GF-AFC cytotoxicity assay.

Row | SMILES | activity change, negative = inhibition
1 | COc1ccc(C(=O)NCC2(N(C)C)CCCCC2)cc1Cl | inactive: 19.1%
2 | CC(C)Oc1ccc(C(=O)NCC2(N(C)C)CCCCC2)cc1 | inactive: 15.2%
3 | COc1cc(C(=O)NCC2(N(C)C)CCCCC2)cc(OC)c1OC | inactive: -7.9%
4 | Cc1cccc(C(=O)NCC2(N(C)C)CCCCC2)c1 | inactive: 3.29%
5 | CC(C)COc1ccc(C(=O)NCC2(N(C)C)CCCCC2)cc1 | inactive: 7.18%
6 | CN(C)C1(CNC(=O)c2ccccc2F)CCCCC1 | inactive: -18.3%
7 | CCOc1cccc(C(=O)NCC2(N(C)C)CCCCC2)c1 | inactive: -3.83%
8 | CCCCOc1ccccc1C(=O)NCC1(N(C)C)CCCCC1 | inactive: 7.78%
9 | CN(C)C1(CNC(=O)c2ccccc2[N+](=O)[O-])CCCCC1 | inactive: -5.64%
